# AlphaSeq binding of Ab-95 light chain variants to a spike HR2 peptide

Values reported by Engelhart et al. 2022, doi:10.1038/s41597-022-01779-4 (FLAb copy).

Antigen: PDVDLGDISGINAS, a 14-residue peptide of the SARS-CoV-2 spike HR2 region.

Parent scFv Ab-95: VH joined to VL by a (GGGGS)3 linker. Changes lie in the light chain CDRs alone.
VH: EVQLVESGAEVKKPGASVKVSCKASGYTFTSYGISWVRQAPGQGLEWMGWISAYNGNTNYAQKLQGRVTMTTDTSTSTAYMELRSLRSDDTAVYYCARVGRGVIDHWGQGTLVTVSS
VL: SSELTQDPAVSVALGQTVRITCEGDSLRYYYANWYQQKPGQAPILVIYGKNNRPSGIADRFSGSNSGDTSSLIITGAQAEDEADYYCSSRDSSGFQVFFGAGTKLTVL

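The parent was found by panning a naive human phage display library on the peptide. Library AAYL52 holds single substitutions and randomly drawn double and triple substitutions in the CDRs. AlphaSeq pools MATa yeast showing the antibodies with MATalpha yeast showing the peptide. Mating (16 h, 30 °C) was followed by selection of diploids and sequencing of their barcodes. The ratio of observed to expected reads was calibrated, replicate by replicate, on BCL2-family standards whose Kd was known from biolayer interferometry. Mating was done three times.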

Changes read parent residue, position, new residue, counted from the first residue of the VL shown.
Every variant below is changed at Y29 of the VL (sequential numbering).
Affinities are written as log10 Kd with Kd in nM; a lower number is a better binder.
Replicates are averaged; those with no signal do not enter the mean.
An entry "nd" has no value in the source: the pair was not observed among the diploids in that replicate. This suggests poor binding but is not conclusive.
Empty control strains, which show no peptide, gave a signal in 28% of pairings with library AAYL52; the median was 3.91 and 95% of these signals were weaker than 2.90. No background was subtracted.
In this assay the parent's reference entry averaged 2.31; its copy inside this library read 2.25.

- D25K+Y29C+Y30D: 2.00, 2.37, 3.17 (mean 2.51)
- Y29A+N33G+K50N: 5.34, 5.68, 2.69 (mean 4.57)
- Y29C+D91F: 3.41, 3.25, 4.06 (mean 3.58)
- Y29G+R53E+P54C: 2.91, 2.77, 2.25 (mean 2.64)
- Y29C+G49C+R90V: nd, nd, nd
- Y29W+K50R+P54M: 3.13, 3.22, 3.25 (mean 3.20)
- Y29S+A32V+G94M: 3.86, 2.81, 3.12 (mean 3.26)
- E23Q+Y29G+Y31S: 0.90, 0.88, 0.25 (mean 0.67)
- Y29G+P54C+S55W: 2.77, 2.60, 2.62 (mean 2.66)
- Y29K+K50Y+S55N: 2.85, 2.53, 2.57 (mean 2.65)
- Y29W+N51L+S93F: 3.99, nd, nd
- E23D+Y29F+Y31Q: 2.11, 2.40, 1.75 (mean 2.09)
- Y29E+G94N+F95V: 2.65, 2.44, 3.02 (mean 2.70)
- Y29G+A32N+Q96N: 2.73, 2.07, 1.96 (mean 2.25)
- Y29N+Y31N: 0.95, 0.95, 0.37 (mean 0.76)
- E23R+S26K+Y29V: 4.99, 4.17, nd (mean 4.58)
- Y29N+S93F+Q96E: 1.70, 2.52, 1.33 (mean 1.85)
- Y29F+S55H: 2.13, 2.33, 2.06 (mean 2.17)
- Y29G+S88N+S89W: 2.40, 3.26, 4.03 (mean 3.23)
- Y29K+Y31W+A32S: 4.68, 3.91, 2.98 (mean 3.85)
- Y29I: 3.63, 2.27, 3.81 (mean 3.24)
- Y29Q+N51M+S88G: 3.41, 4.19, 4.18 (mean 3.93)
- Y29I+A32H+S88I: 4.09, 4.75, 3.13 (mean 3.99)
- Y29A+S92F+V97H: 2.26, 1.91, 1.74 (mean 1.97)
- Y29A+G49Q+N51V: 4.44, 3.50, 4.54 (mean 4.16)
- G24V+Y29M+Q96E: 3.38, 3.52, 3.02 (mean 3.31)
- Y29T+S89M+F95S: 2.47, 1.54, 1.46 (mean 1.82)
- Y29F+G94T+F98S: 2.35, 2.38, 2.14 (mean 2.29)
- Y29F+A32C+V97M: nd, nd, 4.33
- Y29L+G49A+V97E: nd, nd, nd
- Y29S+Y30W+S93A: 2.25, 2.23, 2.15 (mean 2.21)
- Y29N+A32M+S92H: 4.50, 4.06, 3.13 (mean 3.90)
- D25T+Y29K+Y30H: 2.31, 1.89, 2.12 (mean 2.11)
- Y29W: 1.84, 1.27, 0.84 (mean 1.32)
- Y29F: 2.27, 2.65, 1.81 (mean 2.24)
- Y29P+R90F+F95K: 2.18, 2.61, 1.49 (mean 2.09)

A selection of 3 entries from above:

* Y29F+G94T+F98S: 2.35, 2.38, 2.14 (mean 2.29)
* Y29Q+N51M+S88G: 3.41, 4.19, 4.18 (mean 3.93)
* Y29G+R53E+P54C: 2.91, 2.77, 2.25 (mean 2.64)